Earlier results, collected in PMC5368065.

By UniProt entry, the sequences of proteins in these tests, tags left out. Where a name states a change or a piece, a line headed by the entry shows the natural chain unless it says otherwise.
UniProt Q9UPS6: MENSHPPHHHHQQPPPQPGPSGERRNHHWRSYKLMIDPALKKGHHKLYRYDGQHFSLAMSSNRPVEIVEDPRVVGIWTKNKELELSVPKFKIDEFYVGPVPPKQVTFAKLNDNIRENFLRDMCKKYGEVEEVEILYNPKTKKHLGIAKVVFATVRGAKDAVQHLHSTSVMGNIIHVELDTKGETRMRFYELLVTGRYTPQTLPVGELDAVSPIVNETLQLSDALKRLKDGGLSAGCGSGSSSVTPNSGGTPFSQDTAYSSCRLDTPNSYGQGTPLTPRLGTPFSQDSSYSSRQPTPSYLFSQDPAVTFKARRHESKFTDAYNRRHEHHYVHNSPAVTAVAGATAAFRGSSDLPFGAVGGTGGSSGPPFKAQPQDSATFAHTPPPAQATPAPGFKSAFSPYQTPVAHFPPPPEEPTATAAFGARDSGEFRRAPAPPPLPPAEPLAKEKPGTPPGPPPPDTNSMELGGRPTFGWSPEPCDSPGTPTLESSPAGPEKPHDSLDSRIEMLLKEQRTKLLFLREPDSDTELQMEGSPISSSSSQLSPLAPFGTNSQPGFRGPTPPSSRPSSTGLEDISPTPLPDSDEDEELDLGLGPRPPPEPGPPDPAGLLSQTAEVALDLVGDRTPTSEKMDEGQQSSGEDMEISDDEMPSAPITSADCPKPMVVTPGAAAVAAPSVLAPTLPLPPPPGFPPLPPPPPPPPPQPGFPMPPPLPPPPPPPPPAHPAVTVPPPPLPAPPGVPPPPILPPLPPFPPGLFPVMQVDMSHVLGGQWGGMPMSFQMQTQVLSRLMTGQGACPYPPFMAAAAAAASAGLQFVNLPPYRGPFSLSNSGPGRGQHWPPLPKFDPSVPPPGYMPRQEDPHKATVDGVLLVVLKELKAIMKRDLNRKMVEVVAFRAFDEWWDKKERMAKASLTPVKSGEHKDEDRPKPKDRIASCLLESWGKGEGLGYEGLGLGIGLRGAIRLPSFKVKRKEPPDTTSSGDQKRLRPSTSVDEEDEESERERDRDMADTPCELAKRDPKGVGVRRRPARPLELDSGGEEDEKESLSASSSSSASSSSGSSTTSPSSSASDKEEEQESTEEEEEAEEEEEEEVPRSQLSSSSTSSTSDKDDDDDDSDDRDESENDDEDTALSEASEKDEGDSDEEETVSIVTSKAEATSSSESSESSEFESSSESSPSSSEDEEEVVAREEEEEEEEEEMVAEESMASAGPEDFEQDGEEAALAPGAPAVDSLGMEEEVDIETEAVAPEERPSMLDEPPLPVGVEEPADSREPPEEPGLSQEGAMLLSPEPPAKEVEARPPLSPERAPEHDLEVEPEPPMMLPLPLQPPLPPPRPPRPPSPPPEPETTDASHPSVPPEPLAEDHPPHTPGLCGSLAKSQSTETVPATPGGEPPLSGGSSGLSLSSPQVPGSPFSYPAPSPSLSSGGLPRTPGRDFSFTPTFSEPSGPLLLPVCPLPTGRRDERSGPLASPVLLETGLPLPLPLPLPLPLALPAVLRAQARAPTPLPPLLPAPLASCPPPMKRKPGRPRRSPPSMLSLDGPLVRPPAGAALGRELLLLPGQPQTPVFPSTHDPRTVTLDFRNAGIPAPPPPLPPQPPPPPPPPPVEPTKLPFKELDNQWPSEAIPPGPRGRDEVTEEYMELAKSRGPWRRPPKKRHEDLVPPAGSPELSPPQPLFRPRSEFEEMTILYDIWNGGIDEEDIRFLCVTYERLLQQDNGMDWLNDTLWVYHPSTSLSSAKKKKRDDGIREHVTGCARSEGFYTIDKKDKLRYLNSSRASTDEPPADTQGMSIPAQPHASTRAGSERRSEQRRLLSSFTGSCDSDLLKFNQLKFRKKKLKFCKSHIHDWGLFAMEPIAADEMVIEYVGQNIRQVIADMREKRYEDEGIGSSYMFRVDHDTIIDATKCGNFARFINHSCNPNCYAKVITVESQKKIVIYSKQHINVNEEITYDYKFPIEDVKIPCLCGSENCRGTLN

Key:
[1] = biological target: histone H3 tail peptide (Homo sapiens) (UniProt P68431)
[2] = biological target: SET1B WIN peptide WIN motif (Homo sapiens) (UniProt Q9UPS6)
[3] = biological target: MLL4 WIN peptide WIN motif (Homo sapiens) (UniProt Q9UMN6)
[4] = biological target: SET1A WIN peptide WIN motif (Homo sapiens) (UniProt O15047)
[5] = biological target: MLL3 WIN peptide WIN motif (Homo sapiens) (UniProt Q8NEZ4)
[6] = biological target: MLL2 WIN peptide WIN motif (Homo sapiens) (UniProt O14686)

Ki [1]: 0.02 µM | Kd [2]: 0.103 µM | Kd [3]: 0.088 µM | Kd [4]: 0.541 µM | Kd [5]: 0.054 µM | Kd [6]: 0.075 µM
Substance: WDR5 (from UniProt P61964)
